Reference: patent publication US20120121615A1, “ALANINYL MAYTANSINOL ANTIBODY CONJUGATES” (priority 2010, published 2012)

Tested on: SK-BR-3 cells
Assay: SK-BR-3 cell proliferation assay (CellTiter-Glo Luminescent Cell Viability Assay)
Assay type: cell-based
Experimental: This cell proliferation assay determines the number of viable cells in culture based on quantitation of the ATP present, an indicator of metabolically active cells (Crouch et al (1993) J. Immunol. Meth. 160:81-88; U.S. Pat. No. 6,602,677). The CellTiter-Glo® Assay was conducted in 96 well format, making it amenable to automated high-throughput screening (HTS) (Cree et al (1995) AntiCancer Drugs 6:398-404). The homogeneous assay procedure involves adding the single reagent (CellTiter-Glo® Reagent) directly to cells cultured in serum-supplemented medium. Cell washing, removal of medium and multiple pipetting steps are not required. The system detects as few as 15 cells/well in a 384-well format in 10 minutes after adding reagent and mixing.
The homogeneous “add-mix-measure” format results in cell lysis and generation of a luminescent signal proportional to the amount of ATP present. The amount of ATP is directly proportional to the number of cells present in culture. […] Viable cells are reflected in relative luminescence units (RLU). The substrate, Beetle Luciferin, is oxidatively decarboxylated by recombinant firefly luciferase with concomitant conversion of ATP to AMP and generation of photons.

## trastuzumab
SK-BR-3 cell proliferation at 5 days
  IC50 (ng/ml): >10,000 ng/ml
Up to 10,000 ng/ml concentration tested
  in vitro activity: very little or no activity
